From BindingDB's records for PubMed 10779381 (University of Ferrara, 2000)
“And” between values parts separate entries of the source, which are not always exact repeats. Equal entries are not always repeated.

Sequences of proteins named here, by UniProt entry; tags and fusion partners are left off.
UniProt P0DMS8, whole entry: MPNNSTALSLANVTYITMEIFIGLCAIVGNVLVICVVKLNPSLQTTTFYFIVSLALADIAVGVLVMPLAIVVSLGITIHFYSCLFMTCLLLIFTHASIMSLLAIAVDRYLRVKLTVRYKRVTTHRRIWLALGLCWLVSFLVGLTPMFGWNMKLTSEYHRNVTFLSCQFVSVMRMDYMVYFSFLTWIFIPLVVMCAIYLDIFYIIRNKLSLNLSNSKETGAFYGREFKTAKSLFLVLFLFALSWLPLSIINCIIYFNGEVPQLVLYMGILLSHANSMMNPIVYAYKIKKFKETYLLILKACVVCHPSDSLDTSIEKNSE

Target: Adenosine receptor A3 (Homo sapiens, UniProt P0DMS8)

Ki: 0.85 nM and 0.86 nM
SMILES: CCCn1cc2c(nc(NC(=O)Nc3ccc(OC)cc3)n3nc(-c4ccco4)nc23)n1 [J1.251.181G]
